## Antibody variant affinities, Ab-14 light chain, assay B

Values reported by Li et al. 2023, doi:10.1038/s41467-023-39022-2 (FLAb copy).

Target: peptide PDVDLGDISGINAS, taken from heptad repeat 2 (HR2) of SARS-CoV-2 spike.

Each scFv is VH, a 15-residue (Gly4Ser)3 linker, VL, as in the parent Ab-14, and differs from it in the CDRs of the light chain only.
VH: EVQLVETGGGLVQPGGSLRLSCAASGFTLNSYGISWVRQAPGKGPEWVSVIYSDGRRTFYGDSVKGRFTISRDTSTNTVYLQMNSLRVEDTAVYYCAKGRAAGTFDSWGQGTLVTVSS
VL: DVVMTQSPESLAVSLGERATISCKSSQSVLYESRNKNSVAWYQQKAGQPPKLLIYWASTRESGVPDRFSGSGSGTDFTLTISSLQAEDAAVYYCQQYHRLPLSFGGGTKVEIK

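The parent was found by panning a naive human phage display library on the peptide. The variants were designed computationally from a first round of random CDR variants and then made and measured. Several design methods are mixed in this list. Affinity was read by AlphaSeq, a pooled yeast mating assay with surface-displayed partners. The frequency of each diploid, read from paired DNA barcodes, reflects how well the two displayed proteins bind. Read counts were normalised to the haploid input and turned into Kd by a linear fit to BCL2-family pairs of known affinity, for each replicate. There are six technical replicates.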

Changes read parent residue, position, new residue, counted from the first residue of the VL shown.
This list holds designs with at most six substitutions.
Values are apparent Kd, the geometric mean of the replicates that gave a signal; lower means stronger binding.
A pair that was not seen in any replicate is written "nd"; this usually means weak binding, but a binder can also be missed.

For S25V+S26E+W56N+A57G, the assay gave 360 pM (6 of 6 replicates).
For S25L+S33D+W56Q+E61C+S103N, the assay gave 670 pM (6 of 6 replicates).
For S25H+R99C, the assay gave nd (0 of 6 replicates).
For K24H+Q27P+L30A+W56A, the assay gave 1.6 nM (6 of 6 replicates).
For S26D+W56R, the assay gave 11 nM (6 of 6 replicates).
For S25R+S58N, the assay gave 72 nM (1 of 6 replicates).
For S25G+S28V+V29Y+W56G, the assay gave 700 pM (6 of 6 replicates).
For S28P+S33A, the assay gave 34 nM (3 of 6 replicates).
For V29G+N35M+W56E, the assay gave 6.0 nM (6 of 6 replicates).
For R60C+L100Q, the assay gave nd (0 of 6 replicates).
For S25L+S26M+W56N+S62M, the assay gave 1.3 nM (6 of 6 replicates).
For S25M+L30H+S33A, the assay gave 11 nM (6 of 6 replicates).
For S25L+S26Q+W56N+T59K, the assay gave 820 pM (6 of 6 replicates).
For S25L+V29A+W56N+T59Q, the assay gave 2.1 nM (6 of 6 replicates).
For S25M+K36D+W56A+S62A+Q96A, the assay gave 4.9 nM (6 of 6 replicates).
For S26L+W56E+S62D, the assay gave 3.1 nM (6 of 6 replicates).
For V29M+W56G+P101T, the assay gave nd (0 of 6 replicates).
For Y31K+S33H+N35F+S38N, the assay gave 71 nM (6 of 6 replicates).
For S33C, the assay gave nd (0 of 6 replicates).
For S25V+N35D+W56N, the assay gave 760 pM (6 of 6 replicates).
For K24V+S25L+Y31P+W56S+E61L+S62P, the assay gave 1.5 nM (6 of 6 replicates).
For K24R+E32F+N35T+W56Q+Q95E, the assay gave 11 nM (2 of 6 replicates).
For K24H+Q27P+V29G+W56N+S103Q, the assay gave 1.6 nM (6 of 6 replicates).
For S25L+V29F+W56N+T59Q+Q96D, the assay gave 370 pM (6 of 6 replicates).
For S25V+K36Q+W56E, the assay gave 720 pM (6 of 6 replicates).
For S26A+W56A+S58D+S62N, the assay gave 220 pM (6 of 6 replicates).
For S25V+Q27P+W56N, the assay gave 650 pM (6 of 6 replicates).
For S25V+S26L+W56N+T59Q, the assay gave 1.0 nM (6 of 6 replicates).
For S25L+S26P+V29Q+W56N+S62V, the assay gave 3.4 nM (6 of 6 replicates).
For V29L+R34V+S58D+L100I, the assay gave 91 nM (5 of 6 replicates).
For N35D+W56H+S62D, the assay gave 6.1 nM (6 of 6 replicates).
For K24M+N35E+W56Q+P101N+S103A, the assay gave nd (0 of 6 replicates).
For S25L+V29P+W56S+H98R, the assay gave 1.1 nM (6 of 6 replicates).
For K24S+K36H+S103D, the assay gave nd (0 of 6 replicates).
For V29W+W56G+S62L, the assay gave 2.0 nM (6 of 6 replicates).

Top 2 of the variants detected in all replicates, tightest first:

For S26A+W56A+S58D+S62N, the assay gave 220 pM (6 of 6 replicates).
For S25V+S26E+W56N+A57G, the assay gave 360 pM (6 of 6 replicates).

In the paper, a design with two or fewer of six values counts as a poor binder.
Empty control strains, which show no peptide, gave a signal in 4% of pairings with all light chain designs; the median was 430 nM and 95% of these signals were weaker than 38 nM. No background was subtracted.
A sequence measured in both rounds can read differently, since the two assays cover different ranges.
Of ten entries with the parent sequence, four were seen in most replicates (averages 2.2 nM to 240 nM), three in one and three in none, so single entries are noisy.